Test system: UACC-62 cells
Assay: High-throughput Cell Death Assay I, UACC-62 melanoma cells
Details: read-out: IC50 (μM) at 72 hours
Method: High-throughput Cell Death Assay I on Test Compounds: U-937 and HL-60 cells from cell culture are harvested by centrifugation at 250×g for 5 min. Cells are then resuspended in RPMI 1640+10% FBS, counted using a hemocytometer and diluted so that 20,000 cells are seeded into each well of a Corning 96-well flat bottom microtiter plate (Fisher, Chicago Ill.). Media is then added to bring the total volume of each well to 100 μL. Test compounds are transferred into the wells using a 96-pin transfer apparatus (V & P Scientific, San Diego Calif.) that transfers 0.2 μL of compound. The compounds are made up as 50 mM stock solutions in 100% EtOH, so one transfer gives a final concentration of 100 microM. […] The cells are incubated with the compounds for 24 hours, and then cell death is quantitated. This quantitation is performed by addition of 20 microL of the MTS/PMS CellTiter 96 Cell Proliferation Assay reagent (Promega, Madison Wis.) to each well; this reagent is 3-(4,5-dimethylthiazol-2-yl)-5-(3-carboxymethoxyphenyl)-2-(4-sulfophenyl)-2H-tetrazolium, inner salt (MTS), and an electron coupling reagent, phenazine methosulfate (PMS). […]
The plates are incubated at 37° C. for approximately one hour until the colored product formed and the absorbance was then measured at 490 nm in a Spectra Max Plus 384 plate reader (Molecular Devices, Sunnyvale Calif.). […]

Row | SMILES | IC50 [µM]
1 | C#CCOP(=O)(Cl)C(c1ccccc1)(c1ccccc1)c1ccccc1 (centres unmarked) | 7.19
2 | CC#CCOP(=O)(Cl)C(c1ccccc1)(c1ccccc1)c1ccccc1 (centres unmarked) | 17.5
